Reference: publication PMC10629533, “Structures and membrane interactions of native serotonin transporter in complexes with psychostimulants” (Proceedings of the National Academy of Sciences of the …, 2023)

Biological target: porcine serotonin transporter (pSERT) (Sus scrofa, UniProt F1RN70)
Assay: [3H]paroxetine saturation binding, scintillation proximity assay
Set-up: gene SLC6A4; native pSERT in lysate of porcine brain membranes

`Fc1ccc([C@@H]2CCNC[C@H]2COc2ccc3c(c2)OCO3)cc1` [paroxetine] showed a Kd of 6.5 ± 1.3 nM.
